Earlier results, collected in patent publication US20220265723A1, “NON-VIRAL MODIFICATION OF MESENCHYMAL STEM CELLS” (NATIONAL UNIVERSITY OF SINGAPORE, priority 2019, published 2022).

Tested on: prodrug-activating enzyme of each system: CA, CD, CPG2, Cyt-450, dCK, HSV-TK, NR, PNP, TP, VZV-TK
Conditions: systems: CA/CPT-11, CD/5-FC, CPG2/CMDA, Cyt-450/CP, IF, dCK/ara-C, HSV-TK/GCV, ACV, NR/CB1954, PNP/6-MePdR, TP/5′-DFUR, VZV-TK/ara-M; read-out: KM (S0.5); cited from earlier work

## Nc1nc(O)c2ncn(COC(CO)CO)c2n1 [GCV, ganciclovir]
  Km: 11 to 15.8 µM
